{"sequences": {"note": "Chains of the proteins cited; added tags and fusions are not shown. Residues count along the entry.", "UniProt P22303, 32-614": "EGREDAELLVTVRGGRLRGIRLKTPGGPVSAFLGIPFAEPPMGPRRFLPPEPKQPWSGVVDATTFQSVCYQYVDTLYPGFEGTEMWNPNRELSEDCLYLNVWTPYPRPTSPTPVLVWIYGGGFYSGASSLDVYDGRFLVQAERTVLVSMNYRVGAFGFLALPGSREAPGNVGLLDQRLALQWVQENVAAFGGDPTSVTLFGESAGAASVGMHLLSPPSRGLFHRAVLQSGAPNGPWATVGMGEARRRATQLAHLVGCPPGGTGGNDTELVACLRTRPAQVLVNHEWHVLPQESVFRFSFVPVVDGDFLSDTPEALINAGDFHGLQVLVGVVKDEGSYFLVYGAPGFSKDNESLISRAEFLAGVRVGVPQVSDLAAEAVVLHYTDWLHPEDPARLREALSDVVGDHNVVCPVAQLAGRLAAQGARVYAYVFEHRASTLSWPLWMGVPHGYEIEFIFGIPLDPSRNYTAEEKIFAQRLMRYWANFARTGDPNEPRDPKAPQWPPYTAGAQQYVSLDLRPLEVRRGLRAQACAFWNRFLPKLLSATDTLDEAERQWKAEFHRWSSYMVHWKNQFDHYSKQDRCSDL", "UniProt P06276, 29-602": "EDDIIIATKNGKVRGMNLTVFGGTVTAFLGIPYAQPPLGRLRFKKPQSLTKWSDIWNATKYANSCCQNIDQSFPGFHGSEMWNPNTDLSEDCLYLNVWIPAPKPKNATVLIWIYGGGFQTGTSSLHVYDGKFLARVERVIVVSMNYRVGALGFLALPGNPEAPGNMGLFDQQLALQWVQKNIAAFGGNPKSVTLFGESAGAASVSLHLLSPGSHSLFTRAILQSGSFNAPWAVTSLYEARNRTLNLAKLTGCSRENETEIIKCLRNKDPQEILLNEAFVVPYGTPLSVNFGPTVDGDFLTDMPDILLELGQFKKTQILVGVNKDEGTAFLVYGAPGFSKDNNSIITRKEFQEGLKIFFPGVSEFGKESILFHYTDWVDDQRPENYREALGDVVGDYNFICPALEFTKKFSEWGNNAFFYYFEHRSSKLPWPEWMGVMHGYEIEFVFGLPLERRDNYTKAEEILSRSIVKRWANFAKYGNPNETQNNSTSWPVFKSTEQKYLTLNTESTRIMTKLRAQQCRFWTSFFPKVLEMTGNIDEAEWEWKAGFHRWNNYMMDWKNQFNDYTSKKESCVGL"}, "source": "paper PMC9692855", "about": "“Amaryllidaceae Alkaloids from Clivia miniata (Lindl.) Bosse (Amaryllidaceae): Isolation, Structural Elucidation, and Biological Activity” (Plants, 2022)", "key": {"[1]": {"target": "human recombinant AChE (E.C. 3.1.1.7) (Homo sapiens, UniProt P22303)", "type": "biochemical", "details": "100 µM"}, "[2]": {"target": "human plasma BuChE (E.C. 3.1.1.8) (Homo sapiens, UniProt P06276)", "type": "biochemical", "details": "tested at 100 µM compound concentration"}}}
{"smiles": "CNC(=O)Oc1ccc2c(c1)[C@]1(C)CCN(C)[C@@H]1N2C", "note": "[eserine, reference compound]", "values": [{"measurement": "% Inhibition hAChE ± SEM", "setting": "[1]", "result": "99.98 ± 0.02", "unit": "%"}, {"measurement": "% Inhibition hBuChE ± SEM", "setting": "[2]", "result": "99.78 ± 0.04", "unit": "%"}]}
